Tested on: mice of Kunming breed
Conditions: mouse, in vivo

Cc1nc2n(c(=O)c1CCN1CCC(c3noc4cc(F)ccc34)CC1)CCCC2 [risperidone]
EPS at effective dosage (in words): did not cause EPS at effective dosage

From patent US10517862B2, “Fused heterocyclic compound derivative and application thereof” (NHWA PHARMA. CORPORATION, priority 2015, dated 2019)
